{"sequences": {"note": "By UniProt entry, the sequences of proteins in these tests, tags left out. Residues count along the entry.", "UniProt P84516, 32-362 limits assumed": "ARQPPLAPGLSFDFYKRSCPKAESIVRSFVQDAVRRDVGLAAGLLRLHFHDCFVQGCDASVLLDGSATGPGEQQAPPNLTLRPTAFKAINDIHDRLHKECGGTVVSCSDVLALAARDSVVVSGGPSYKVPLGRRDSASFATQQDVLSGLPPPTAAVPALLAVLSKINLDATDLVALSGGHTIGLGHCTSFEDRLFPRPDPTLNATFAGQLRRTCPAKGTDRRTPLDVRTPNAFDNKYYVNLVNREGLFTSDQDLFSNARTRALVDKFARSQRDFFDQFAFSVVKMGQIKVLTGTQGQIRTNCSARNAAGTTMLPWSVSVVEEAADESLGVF"}, "source": "paper PMC4771821", "about": "“Structural and spectroscopic characterisation of a heme peroxidase from sorghum” (Journal of Biological Inorganic Chemistry, 2015)", "target": "SK 5912 sorghum peroxidase (cationic class III peroxidase) (Sorghum bicolor, UniProt P84516)", "assay": "equilibrium binding titration by UV-visible spectroscopy", "data": [{"smiles": "[N-]=[N+]=N", "values": [{"measurement": "Kd", "value": 19, "unit": "µM"}]}]}
